Measurements from US20210283220A1, “ANTIBODY MOLECULE-DRUG CONJUGATES AND USES THEREOF” (priority 2017, published 2021).

What was measured:
[1] = system: 293T cells; assay: Cytotoxicity, cell viability using 293T cells; format: cell-based
[2] = system: red blood cells; assay: Red blood cell hemolysis assay (PLC, MLC); format: cell-based; settings: for PLC: partial lytic concentration, hemolytic activity

Substance: GGGKFFRKLKKSVKKRAKEFFKKPRVIGVSIPF [Peptide P297]
- Cytotoxicity [1]: >1000 µg/mL

Substance: GIGKFLKKAKKFGKAFVKILKKGGGGSGGGGS [peptide 24]
- PLC [2]: 512 µg/mL

Substance: GAFGNFLKGVAKKAGLKILSIAQCKLFGTC [peptide 70]
- PLC [2]: 8 µg/mL

Substance: ALWKTLLKKVLKAAAKGGGGSGGGGS [peptide 30]
- PLC [2]: 512 µg/mL

Substance: KKLLKWLKKLL [peptide 126]
- PLC [2]: 640 µg/mL

Substance: GGGGRFKRFRKKFKKLFKKLSPVIPLLHLG [Peptide P295]
- Cytotoxicity [1]: 100 µg/mL

Substance: GGG-D-Dab-cyclic(L-Dab-L-Dab-D-Leu-L-Phe-L-Dab-L-Dab-L-Leu) [GGG-Octapeptin]
- Hemolysis PLC ([2]; concentration that led to 50% red blood cell lysis): >128 µg/mL
- Hemolysis MLC ([2]; concentration that led to 100% red blood cell lysis): >128 µg/mL
- Hemolysis MLC/MIC ([2]; ratio): >64
- Hemolysis PLC/MIC ([2]; ratio): >64
